Laboratory results as given in paper PMC3130777, “Phase I Hydroxylated Metabolites of the K2 Synthetic Cannabinoid JWH-018 Retain In Vitro and In Vivo Cannabinoid 1 Receptor Affinity and Activity” (PLoS ONE, 2011).

Sequences of proteins named here, by UniProt entry; tags and fusion partners are left off.
UniProt P47746, whole entry: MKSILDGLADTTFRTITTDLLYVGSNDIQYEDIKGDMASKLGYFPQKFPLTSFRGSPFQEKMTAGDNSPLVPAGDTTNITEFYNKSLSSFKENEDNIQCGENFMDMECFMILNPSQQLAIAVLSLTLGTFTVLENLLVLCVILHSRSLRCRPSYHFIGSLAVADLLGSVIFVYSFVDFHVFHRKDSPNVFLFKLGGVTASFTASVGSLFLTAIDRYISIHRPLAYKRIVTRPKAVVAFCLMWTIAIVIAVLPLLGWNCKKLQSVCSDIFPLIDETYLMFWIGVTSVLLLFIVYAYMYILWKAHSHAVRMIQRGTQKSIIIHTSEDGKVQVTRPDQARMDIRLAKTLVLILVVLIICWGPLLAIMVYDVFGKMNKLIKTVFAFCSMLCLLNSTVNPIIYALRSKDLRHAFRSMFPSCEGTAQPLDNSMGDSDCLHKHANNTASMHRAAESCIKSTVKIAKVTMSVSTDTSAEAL

Columns and labels:
[1] = molecular target: T1, CB1R (Mus musculus, UniProt P47746); type: binding
T1 construct: CB1Rs are endogenously expressed in abundant quantities in the CNS; from tissue; host or cells: whole brain of B6SJL mice, crude membrane homogenates

[2] = molecular target: T1, CB1R; type: biochemical

CCCCCc1cc(O)c2c(c1)OC(C)(C)[C@@H]1CCC(C)=C[C@@H]21 [Δ^9-THC, Δ^9-tetrahydrocannabinol, reference compound]
Ki ([1]; competition against 0.2 nM [^3H]CP-55,940, mouse whole brain membrane homogenates, mean ± SEM, n = 3–4, read-out: Affinity (Ki) for CB1Rs): 15.3 ± 4.5 nM | Displacement of [^3H]CP-55,940 from CB1Rs ([1]; mouse brain homogenates, data not shown): 100% | Agonist type at mCB1Rs (partial or full) ([2]; 10 µM, compared with full agonist CP-55,940): partial | EC50 ([2]; concentration-effect curve, Fig. 3B, n = 3–4, read-out: EC50 of G-protein activation): 167 ± 84.7 nM | G-protein stimulation ([^35S]GTPγS bound) ([2]; receptor saturating concentration (10 µM), Fig. 3A): 0.07 ± 0.01 pmol/mg
